Test results reported in patent US9416127B2, “Triazole carboxamides and uses thereof” (Hoffmann-La Roche Inc., priority 2012, dated 2016).

Sequences of proteins named here, by UniProt entry; tags and fusion partners are left off.
UniProt Q923Y8, whole entry: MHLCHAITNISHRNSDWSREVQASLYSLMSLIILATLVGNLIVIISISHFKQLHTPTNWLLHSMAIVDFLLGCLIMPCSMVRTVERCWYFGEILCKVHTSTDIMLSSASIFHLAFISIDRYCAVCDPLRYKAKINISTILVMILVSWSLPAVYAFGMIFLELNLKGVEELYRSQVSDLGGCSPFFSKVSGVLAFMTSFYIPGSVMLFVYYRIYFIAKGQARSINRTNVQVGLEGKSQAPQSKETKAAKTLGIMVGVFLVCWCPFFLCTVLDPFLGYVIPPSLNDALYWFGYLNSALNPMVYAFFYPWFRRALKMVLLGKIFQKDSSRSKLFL
UniProt Q923Y9, whole entry: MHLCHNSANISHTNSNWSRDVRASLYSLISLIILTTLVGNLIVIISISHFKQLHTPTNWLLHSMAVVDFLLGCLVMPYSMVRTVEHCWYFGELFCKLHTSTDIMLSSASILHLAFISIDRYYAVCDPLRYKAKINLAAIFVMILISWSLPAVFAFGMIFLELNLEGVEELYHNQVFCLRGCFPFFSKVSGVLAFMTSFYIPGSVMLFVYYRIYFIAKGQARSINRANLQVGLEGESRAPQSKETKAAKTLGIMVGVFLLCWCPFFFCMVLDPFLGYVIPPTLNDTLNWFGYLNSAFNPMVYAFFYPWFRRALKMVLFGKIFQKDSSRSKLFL

Columns and labels:
mouse TAAR1 = mouse TAAR1 (Mus musculus (Mouse), UniProt Q923Y8); experiment: Radioligand binding assay on mouse TAAR1; conditions: read-out: Ki (μM) mouse; mouse TAAR1, HEK-293 membranes; first value of mouse/rat cell; tested form: HCl
rat TAAR1 = rat TAAR1 (Rattus norvegicus (Rat), UniProt Q923Y9); experiment: Radioligand binding assay on rat TAAR1; conditions: read-out: Ki (μM) rat; rat TAAR1, HEK-293 membranes; second value of mouse/rat cell; tested form: HCl

SMILES	Ki (mouse TAAR1) [µM]	Ki (rat TAAR1) [µM]
O=C(Nc1ccc([C@H]2CNCCO2)cc1)c1cn(-c2cccc(F)c2)nn1	0.0029	0.0211
O=C(Nc1ccc([C@H]2CNCCO2)cc1)c1cn(-c2ccc(F)cc2)nn1	0.0023	0.0342
O=C(Nc1ccc([C@H]2CNCCO2)cc1)c1cn(-c2ccc(OC(F)F)cc2)nn1	0.0015	0.0268
O=C(Nc1ccc([C@H]2CNCCO2)cc1)c1cn(-c2ccc(OC(F)(F)F)cc2)nn1	0.0004	0.0032
